Measurements as given in article PMC6099451, “Structure and Biocatalytic Scope of Coclaurine N‐Methyltransferase” (Angewandte Chemie (International Ed. in English), 2018).

Chains of the proteins cited; added tags and fusions are not shown.
UniProt Q948P7, entry or part of it: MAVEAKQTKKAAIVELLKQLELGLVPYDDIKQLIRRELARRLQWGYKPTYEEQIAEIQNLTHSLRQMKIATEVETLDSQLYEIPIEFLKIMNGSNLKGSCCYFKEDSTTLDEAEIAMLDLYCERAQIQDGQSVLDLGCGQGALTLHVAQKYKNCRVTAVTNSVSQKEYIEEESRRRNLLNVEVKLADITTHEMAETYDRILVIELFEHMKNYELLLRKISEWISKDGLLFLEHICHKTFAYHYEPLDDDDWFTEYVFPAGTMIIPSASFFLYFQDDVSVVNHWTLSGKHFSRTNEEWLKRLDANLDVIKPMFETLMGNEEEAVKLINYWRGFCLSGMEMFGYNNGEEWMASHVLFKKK
UniProt Q948P7, entry or part of it W329A: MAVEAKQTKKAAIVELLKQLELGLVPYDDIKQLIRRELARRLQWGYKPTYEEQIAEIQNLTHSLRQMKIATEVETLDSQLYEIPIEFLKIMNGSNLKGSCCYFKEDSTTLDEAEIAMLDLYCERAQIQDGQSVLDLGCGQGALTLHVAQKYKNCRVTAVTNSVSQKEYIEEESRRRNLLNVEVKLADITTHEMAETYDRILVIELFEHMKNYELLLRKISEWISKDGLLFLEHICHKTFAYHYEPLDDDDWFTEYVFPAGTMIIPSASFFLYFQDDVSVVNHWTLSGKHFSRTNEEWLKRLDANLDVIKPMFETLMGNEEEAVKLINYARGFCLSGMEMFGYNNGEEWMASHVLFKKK

Legend:
[1] = biological target: CNMT (coclaurine N-methyltransferase) (Coptis japonica, UniProt Q948P7); assay: X-ray crystal structure; details: active site, flipped relative to 8 a
[2] = biological target: CNMT (coclaurine N-methyltransferase) (Coptis japonica, UniProt Q948P7, W329A); assay type: biochemical; details: AdoMet as methyl donor; stereochemistry of 3 not stated in main text

Km [2] [µM] | SMILES | X-ray crystal structure [1]
– | COc1cc2c(cc1OC)CC(=O)NC2 [compound 9, quinolinone substrate analog 9] | A third structure (PDB 6GKY) was determined for CNMT in complex with a quinolinone
1030 ± 64 | Oc1ccc(C[C@@H]2NCCc3cc(O)c(O)cc32)cc1 [compound 3, norcoclaurine] | –
